Data from patent publication US9593113B2, “Imide and acylurea derivatives as modulators of the glucocorticoid receptor” (BRISTOL-MYERS SQUIBB COMPANY, priority 2013, dated 2017).

By UniProt entry, the sequences of proteins in these tests, tags left out.
UniProt P04150, whole entry: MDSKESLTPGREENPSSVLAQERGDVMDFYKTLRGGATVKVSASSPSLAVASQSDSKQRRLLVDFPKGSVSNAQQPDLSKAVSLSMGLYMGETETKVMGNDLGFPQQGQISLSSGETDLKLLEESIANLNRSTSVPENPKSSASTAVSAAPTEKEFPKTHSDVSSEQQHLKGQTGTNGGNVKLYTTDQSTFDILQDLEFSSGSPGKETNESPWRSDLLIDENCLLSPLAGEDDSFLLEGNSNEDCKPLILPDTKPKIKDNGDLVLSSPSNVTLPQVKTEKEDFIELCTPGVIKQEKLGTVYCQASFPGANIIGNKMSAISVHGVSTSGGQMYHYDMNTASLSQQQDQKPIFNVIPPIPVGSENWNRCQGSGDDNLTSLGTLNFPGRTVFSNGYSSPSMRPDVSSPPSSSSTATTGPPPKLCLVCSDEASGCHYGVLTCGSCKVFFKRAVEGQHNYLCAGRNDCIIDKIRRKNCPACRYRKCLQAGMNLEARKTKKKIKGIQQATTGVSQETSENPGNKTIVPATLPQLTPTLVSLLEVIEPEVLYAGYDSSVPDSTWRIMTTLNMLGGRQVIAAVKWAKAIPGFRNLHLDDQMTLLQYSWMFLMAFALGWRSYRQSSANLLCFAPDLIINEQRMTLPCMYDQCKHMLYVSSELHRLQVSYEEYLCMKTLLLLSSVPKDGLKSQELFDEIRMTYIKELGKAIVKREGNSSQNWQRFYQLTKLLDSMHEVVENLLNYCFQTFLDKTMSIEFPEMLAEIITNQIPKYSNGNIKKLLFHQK

What was measured:
[1] = tested on: AP-1 induced transcriptional activity; assay: Cellular transrepressional assay (AP-1 luciferase reporter, PMA-activated A549 cell); type: cell-based; conditions: for EC50: read-out: AP-1 (EC50, nM) (measured in cellular transrepression assay)
[2] = molecular target: human full-length glucocorticoid receptor (Homo sapiens (Human), UniProt P04150); assay: Glucocorticoid Receptor Binding Assay (II), fluorescence polarization competitor kit; conditions: read-out: GR (Ki, nM) (measured in GR binding Assay II)
[3] = A549 cell, 10 ng/ml PMA, 7 hours

`CC(C)(C(=O)NC(N)=O)[C@@H]1c2ccc(-c3ccc(N4CCOCC4)nc3)nc2Oc2c(F)cccc21` was tested. Which “AP-1 Max % inhibition (measured in cellular transrepression assay)” value (from here on “AP-1 Max % inhibition”) [1, 3] did it give?
The value was 54.62%.

What about the EC50 [1, 3] of the same compound?
Its EC50 is 18.9 nM.

What does the source list for `CC(C)Oc1ccc(-c2ccc3c(n2)Oc2ccccc2[C@@H]3C(C)(C)C(=O)NC(N)=O)cc1F`?
Ki [2]: 0.84 nM; AP-1 Max % inhibition (measured in cellular transrepression assay) [1, 3]: 59.56%; EC50 [1, 3]: 29.1 nM

For `CC(C)C(=O)NC(=O)C(C)(C)[C@@H]1c2ccc(-c3ccc(C(=O)N4CCOCC4)cc3)nc2Oc2c(F)cccc21`, which “AP-1 Max % inhibition” value [1] is on record?
Its value is 42.52%.

Which results are given for `CC(C)(C(=O)NC(N)=O)[C@H]1c2ccccc2Oc2nc(-c3ccccc3)ccc21`?
Ki [2]: 1.74 nM; AP-1 Max % inhibition (measured in cellular transrepression assay) [1, 3]: 29.97%; EC50 [1, 3]: 129 nM

Which Ki [2] does the source give for `CC(C)(C(=O)NC(N)=O)[C@@H]1c2ccc(-c3ccccc3)nc2Oc2c(F)cccc21` here?
The Ki was 0.92 nM.

And the “AP-1 Max % inhibition” value [1, 3]?
Its value is 48.53%.

And the EC50 [1, 3]?
Its EC50 is 19.2 nM.

Which “AP-1 Max % inhibition” value [1, 3] does the source give for `CC(C)(C(=O)NC(=O)C1CC1)[C@@H]1c2ccc(-c3ccc(C(=O)N4CCOCC4)cc3)nc2Oc2c(F)cccc21` here?
Its value is 53.92%.

With `CC(C)(C(=O)NC(=O)C1CCC1)[C@@H]1c2ccc(-c3ccc(C(=O)N4CCOCC4)cc3)nc2Oc2c(F)cccc21` as the compound, how does the “AP-1 Max % inhibition” value [1, 3] read?
The value was 46.14%.

And the EC50 [1, 3]?
The EC50 was 18.3 nM.

With `CC(C)(C(=O)NC(N)=O)[C@H]1c2ccccc2Oc2nc(-c3ccc(-n4cnnn4)cc3)ccc21` as the compound, how does the Ki [2] read?
Its Ki is 1.71 nM.

What about the “AP-1 Max % inhibition” value [1, 3] of the same compound?
Its value is 42.41%.

What about the EC50 [1, 3] of the same compound?
The EC50 was 12.8 nM.

Which “AP-1 Max % inhibition” value [1, 3] does the source give for `CC(C)(C(=O)NC(N)=O)[C@H]1c2ccccc2Oc2nc(-c3ccc(N4CCOCC4)nc3)ccc21` here?
The value was 43.00%.

And the EC50 [1, 3]?
Its EC50 is 19.9 nM.

Like-named read-outs stand apart in the source and are kept apart here.
